Results as given in paper PMC6435542, “Cysteine modifiers suggest an allosteric inhibitory site on the CAL PDZ domain” (Bioscience Reports, 2018).

Target: CAL (CFTR-associated ligand) PDZ domain, tag-free CALP (UniProt Q9HD26-2 276-362)
Test: fluorescence polarisation; apparent KD; protein treated with DMSO (control), dialysed, serial dilutions of protein with the reporter F*-iCAL36; 25 mM sodium phosphate, 150 mM sodium chloride, 0.02% sodium azide, pH 6.8; room temperature
Settings: both partners purified

Kd: 1290 nM
B1: F*-iCAL36, fluorescein-labelled peptide inhibitor iCAL36 (peptide)
peptide: ANSRWPTSII
modifications: N-terminal fluorescein coupled via an amino-hexanoic acid linker
notes: also called reporter ligand; source: synthetic peptide
